Read-outs that look alike come from different tables or passages of the source.

Our source for the Ratio of enhancement values is US20240016734A1, “ENHANCED DELIVERY EPINEPHRINE AND PRODRUG COMPOSITIONS” (Aquestive Therapeutics, Inc., priority 2022, published 2024).

For the series the following is noted: 360 min. The method, then: A franz diffusion cell is obtained and prepared.
If testing films, one can perform the following next steps: (1) weigh films, punch to match diffusion area (or smaller), reweigh, record pre- and post-punching weight; (2) wet a donor area with approximately 100 μL of phosphate buffer; (3) place film on a donor surface, top with 400 μL of phosphate buffer, and start timers.
The tissue is dermatomed to precise thickness. • 4. […] The media is selected to ensure sink conditions. • 5.

On to `CNC[C@H](O)c1ccc(O)c(O)c1` [Epinephrine Bitartrate], for which the Ratio of enhancement reads like this: (8 mg/mL) 2.8; (16 mg/mL) 7.9; (100 mg/mL) 17.6.
